Bounds are passed on as bounds.

The data set is described as follows: Liposome leakage, sedimentation method. To be noted: 0.5 M pyridinium sulfate liposomes. It is filed as physicochemical. Here is the method:
Liposome Leakage, Sedimentation Method. Liposome samples were diluted to 3-5 mL and left on an orbital shaker at 22° C. At specific time points, the liposomes were sedimented in a centrifuge at 300×g for 5 minutes and an aliquot of the clear supernatant was analyzed spectrophotometrically for drug and loading base content. After measurement, the solution was returned to the liposome suspension, which was vortexed and returned to the orbital shaker.
Then, 400 microliters of a pyridinium salt solution (prewarmed to 58° C.) were added to the lipid suspension. The mixture was kept at 58° C. for 5 minutes and then 100 microliters of the pyridinium salt solution were added. The mixture was cooled and diluted with 0.99% w/v sodium chloride. […] A total of three washes were performed. Naltrexone solution was then added in 150 mM citrate (pH 7.0) and the mixture was left to load for 48 hours. After loading, residual non-loaded naltrexone and released pyridine were removed by dilution with saline and sedimentation a total of three times. Naltrexone and pyridine content were measured spectroscopically. The samples were subsequently monitored for release of naltrexone using the sedimentation method. Two trials were performed for each condition.

For the molecule `CN1CC[C@]23c4c5ccc(O)c4O[C@H]2C(=O)CC[C@H]3[C@H]1C5` [hydromorphone, reference compound], the leakage profile entry (preparation containing the least drug (6 μmol)) is “initial burst of leakage”. For the same molecule, the “steady release rate (as low as)” value (preparations other than 6 μmol) was not below 0.1 % per day.

Source of the values: US12059499B2, “Liposome loading” (PLUMB PHARMACEUTICALS, INC., priority 2015, dated 2024).
